Measured values published in patent US20040029871A1, “Pharmaceutical compounds for treating copd” (priority 2000, published 2004).

By UniProt entry, the sequences of proteins in these tests, tags left out. Residues count along the entry.
UniProt P05164, 279-745 limits assumed: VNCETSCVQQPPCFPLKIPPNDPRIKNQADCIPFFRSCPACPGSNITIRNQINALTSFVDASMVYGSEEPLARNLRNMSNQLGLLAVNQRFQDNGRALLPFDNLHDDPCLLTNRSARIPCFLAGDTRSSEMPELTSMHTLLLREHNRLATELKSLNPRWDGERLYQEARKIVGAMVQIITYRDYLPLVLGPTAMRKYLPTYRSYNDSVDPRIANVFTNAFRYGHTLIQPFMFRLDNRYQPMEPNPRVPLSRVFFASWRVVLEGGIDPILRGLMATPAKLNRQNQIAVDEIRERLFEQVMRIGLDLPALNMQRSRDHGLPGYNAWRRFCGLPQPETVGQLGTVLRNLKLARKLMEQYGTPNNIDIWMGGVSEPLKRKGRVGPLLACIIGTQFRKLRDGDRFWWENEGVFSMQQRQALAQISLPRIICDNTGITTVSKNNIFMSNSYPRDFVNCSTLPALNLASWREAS
UniProt P05164, 165-273 limits assumed: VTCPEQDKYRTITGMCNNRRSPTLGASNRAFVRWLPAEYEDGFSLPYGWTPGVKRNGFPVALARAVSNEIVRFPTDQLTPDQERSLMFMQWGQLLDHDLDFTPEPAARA

Target: T1, human MPO (Homo sapiens, UniProt P05164)
T1 construct: purchased Planta
Assay: in vitro MPO assay measuring production of hypochlorus acid (HOCl)
Type: biochemical
Protocol: Here we describe an in vitro MPO assay that was developed to assess inhibition of enzyme activity. Essentially the MPO assay was designed to measure the production of hypochlorus acid (HOCl), which is the key physiological product generated by the enzyme in vivo. An outline of the assay reactions is given: [drawing 5]
Compounds were preincubated with the MPO enzyme in buffer for about 15 min prior to start of reaction with H2O2. The whole reaction was carried out at room temperatutre for 10 min in a 96-well plate. […] All test concentrations were done in duplicated with at least two separate determinations n=2, unless otherwise stated. The inhibitory concentration for a compound is presentated as pIC50, which is −log IC50.

CCOC(=O)c1ccc(N)cc1 [Ethyl aminobenzoate]
IC50: 631 nM
